For experiment [1], the target named is T1, D(4) dopamine receptor (Homo sapiens, UniProt P21917). Kind of experiment: Binding affinity towards Dopamine receptor D4.
Experiment [2] has as its target T1, D(4) dopamine receptor. The experiment in a line: Binding affinity against Dopamine receptor D4.

Amino acid sequences for entries named in this document (tags omitted).
UniProt P21917, whole entry: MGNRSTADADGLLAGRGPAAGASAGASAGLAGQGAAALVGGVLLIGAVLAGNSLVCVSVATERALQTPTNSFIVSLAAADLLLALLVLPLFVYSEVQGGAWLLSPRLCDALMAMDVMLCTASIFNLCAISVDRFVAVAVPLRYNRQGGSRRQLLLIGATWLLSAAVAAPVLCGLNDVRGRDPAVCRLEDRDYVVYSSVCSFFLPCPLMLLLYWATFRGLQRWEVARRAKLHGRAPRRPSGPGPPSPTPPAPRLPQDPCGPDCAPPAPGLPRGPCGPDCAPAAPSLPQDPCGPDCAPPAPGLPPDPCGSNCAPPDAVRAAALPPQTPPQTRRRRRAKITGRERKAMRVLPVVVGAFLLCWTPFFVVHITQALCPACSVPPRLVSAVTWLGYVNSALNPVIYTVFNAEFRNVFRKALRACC

The structures appear in SMILES notation.

The values that follow come from ChEMBL document CHEMBL1135791, “Lysergamides of isomeric 2,4-dimethylazetidines map the binding orientation of the diethylamide moiety in the potent hallucinogenic agent N,N-diethyllysergamide (LSD)” (J Med Chem, 2002).

For `C[C@H]1C[C@H](C)N1C(=O)[C@@H]1C=C2c3cccc4[nH]cc(c34)CC2N(C)C1` (stereo partly drawn), the Ki at D(4) dopamine receptor [1] is 36 nM.
`C[C@@H]1C[C@H](C)N1C(=O)[C@@H]1C=C2c3cccc4[nH]cc(c34)CC2N(C)C1` (stereo partly drawn) came in with a Ki at D(4) dopamine receptor [2] of 18 nM.
On D(4) dopamine receptor [1], `C[C@@H]1C[C@@H](C)N1C(=O)[C@@H]1C=C2c3cccc4[nH]cc(c34)CC2N(C)C1` (stereo partly drawn) gave a Ki of 72 nM.

What is called Ki is the equilibrium dissociation constant of an inhibitor or competing ligand from its target. Read a high Ki as a looser hold on the target.
